Test results reported in patent US20200268901A1 (Bristol-Myers Squibb, published 2020).

T1: human GITR on cells (activated human T cells; 3A9-hGITR cells) (human, UniProt Q9Y5U5 26-241)
T1 sequence (looked up): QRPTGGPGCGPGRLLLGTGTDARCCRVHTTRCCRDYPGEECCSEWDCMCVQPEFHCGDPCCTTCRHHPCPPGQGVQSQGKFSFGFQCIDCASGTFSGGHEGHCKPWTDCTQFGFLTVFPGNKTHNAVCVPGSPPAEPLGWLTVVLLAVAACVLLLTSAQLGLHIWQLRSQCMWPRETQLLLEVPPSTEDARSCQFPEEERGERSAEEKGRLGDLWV


Target: T1, human GITR on cells (activated human T …)
Assay: cell-based or functional assay

Row | Binder | EC50 (nM), phospho-p65 NFkB signaling, CD4+ T cells [nM] | EC50 (nM), phospho-p65 NFkB signaling, CD8+ T cells [nM] | Emax (%), phospho-p65 NFkB signaling, CD4+ T cells [%] | Emax (%), phospho-p65 NFkB signaling, CD8+ T cells [%]
1 | anti-GITR-IgG2-IgG1 (antibody) heavy: QVQLVESGGGVVQPGRSLRLSCAASGFTFSSYGMHWVRQAPGKGLEWVAVIWYEGSNKYYADSVKGRFTISRDNSKNTLYLQMNSLRAEDTAVYYCARGGSMVRGDYYYGMDVWGQGTTVTVSSASTKGPSVFPLAPCSRSTSESTAALGCLVKDYFPEPVTVSWNSGALTSGVHTFPAVLQSSGLYSLSSVVTVPSSNFGTQTYTCNVDHKPSNTKVDKTVERKCCVE[human IgG1 Fc not written out] light: AIQLTQSPSSLSASVGDRVTITCRASQGISSALAWYQQKPGKAPKLLIYDASSLESGVPSRFSGSGSGTDFTLTISSLQPEDFATYYCQQFNSYPYTFGQGTKLEIKRTVAAPSVFIFPPSDEQLKSGTASVVCLLNNFYPREAKVQWKVDNALQSGNSQESVTEQDSKDSTYSLSSTLTLSKADYEKHKVYACEVTHQGLSSPVTKSFNRGEC | 9 | 3.77 | 100 | 92
2 | anti-GITR-IgG1 (antibody) heavy: QVQLVESGGGVVQPGRSLRLSCAASGFTFSSYGMHWVRQAPGKGLEWVAVIWYEGSNKYYADSVKGRFTISRDNSKNTLYLQMNSLRAEDTAVYYCARGGSMVRGDYYYGMDVWGQGTTVTVSSASTKGPSVFPLAPSSKSTSGGTAALGCLVKDYFPEPVTVSWNSGALTSGVHTFPAVLQSSGLYSLSSVVTVPSSSLGTQTYICNVNHKPSNTKVDKKV[human IgG1 Fc not written out] light: AIQLTQSPSSLSASVGDRVTITCRASQGISSALAWYQQKPGKAPKLLIYDASSLESGVPSRFSGSGSGTDFTLTISSLQPEDFATYYCQQFNSYPYTFGQGTKLEIKRTVAAPSVFIFPPSDEQLKSGTASVVCLLNNFYPREAKVQWKVDNALQSGNSQESVTEQDSKDSTYSLSSTLTLSKADYEKHKVYACEVTHQGLSSPVTKSFNRGEC | 7.3 | 20.1 | 10.8 | 27
